# Apparent affinities of Ab-95 variants for a coronavirus HR2 peptide

Source: Engelhart et al. 2022 (doi:10.1038/s41597-022-01779-4), MIT Lincoln Laboratory and A-Alpha Bio; data file from the FLAb repository.

Binding partner: SARS-CoV-2 spike HR2 peptide, sequence PDVDLGDISGINAS.

The variants keep the heavy chain, the linker and the frameworks of Ab-95 (scFv order VH, a (GGGGS)3 linker, VL).
VH: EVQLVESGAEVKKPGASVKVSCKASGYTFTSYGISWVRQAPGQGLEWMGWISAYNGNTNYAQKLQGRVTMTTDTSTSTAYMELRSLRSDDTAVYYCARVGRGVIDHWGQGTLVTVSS
VL: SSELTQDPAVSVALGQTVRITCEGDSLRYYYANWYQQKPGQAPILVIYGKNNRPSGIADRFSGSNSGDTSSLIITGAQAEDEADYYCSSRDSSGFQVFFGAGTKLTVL

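Library AAYL52 holds single substitutions and randomly drawn double and triple substitutions in the CDRs. Affinity was read by AlphaSeq, a pooled yeast mating assay with surface-displayed partners. Pairs that bind mate more often; barcode pairs of the diploids are counted by sequencing. Scores were corrected for input abundance and mapped to Kd with protein pairs of known affinity run in the same pool. The assay was run in three technical replicates.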

Each variant is given by its three light chain CDRs, as the data file delimits them; those of the parent are EGDSLRYYYAN, GKNNRPS, SSRDSSGFQVF. All variants listed here change A32 of the VL, counted from its first residue. Scale: log10 of Kd in nM, estimated from mating counts; low values are strong binders. The mean shown is taken over the replicates in which the pair was detected. An entry "no signal" has no value in the source: the pair was not observed among the diploids in any replicate. This suggests poor binding but is not conclusive. Parent in this assay: reference entry 2.31, copy in this library 2.25. Empty control strains, which show no peptide, gave a signal in 28% of pairings with library AAYL52; the median was 3.91 and 95% of these signals were weaker than 2.90. No background was subtracted.

CDR-L1,CDR-L2,CDR-L3,"mean, log10 nM",seen in
EGDSLRYYTRN,GKNNRPS,SSRDSSGFYVF,4.00,2 of 3
EGDMLRYFYCN,GKNNRPS,SSRDSSGFQVF,2.68,2 of 3
EGDSLRYYYKN,GTNCRPS,SSRDSSGFQVF,5.49,1 of 3
EGDSLRYYYDN,GKNNRPS,SSRDQHGFQVF,1.71,3 of 3
EGDSLRYYYEN,GKNNRPS,SSRASSGFQFF,4.20,1 of 3
YGDSLRYYYKN,GKNNRPS,SSRDSMGFQVF,no signal,0 of 3
EGDSLRYYYIN,GMNNRQS,SSRDSSGFQVF,4.19,1 of 3
EGDSLTYYYMN,GKNNRPS,SSRDSSGFQVF,4.72,2 of 3
EGDSDRYYYLN,GKNNRPS,SSRDSSGFKVF,3.45,3 of 3
PGDSLRYYYRN,GKNNRWS,SSRDSSGFQVF,3.40,1 of 3
EGDSLRYYYQN,GKNNRPS,SSRDWSGFQVW,4.53,1 of 3
EGDSLRYYYSN,GKNNRPS,SSRDSSAFHVF,3.13,3 of 3
EGDSLRYSYKN,GKNNRPS,SSRDSSGFQIF,2.99,3 of 3
EGDSLRYYVSN,GKNNRPS,SNRDSSGFQVF,3.97,2 of 3
EGPSLRYYYFN,GKNNRCS,SSRDSSGFQVF,3.85,2 of 3
EGDSLRYYYRN,GKNERPS,SSRDSSGFPVF,3.65,3 of 3
EGDSLRYYYYN,GKNNRPS,SSEDSSGFQRF,3.91,1 of 3
EGDSLYYYYFN,GKNDRPS,SSRDSSGFQVF,4.16,3 of 3
EGDSLRYNYYN,NKNNRPS,SSRDSSGFQVF,2.67,3 of 3
EGYSLRYYYDN,GKQNRPS,SSRDSSGFQVF,3.22,3 of 3
EGDKLRYYYWN,GKNNRPS,SSRDSSGYQVF,no signal,0 of 3
EGDSLRYIYNN,GKPNRPS,SSRDSSGFQVF,no signal,0 of 3
EGDSLRYYYQH,GKNNRPS,SSNDSSGFQVF,3.77,2 of 3
FGDSLRYYYCN,GKNNAPS,SSRDSSGFQVF,no signal,0 of 3
EGDSLRYYYHN,GKNNRPS,SSHDSSGFQGF,5.51,1 of 3
EGDSVRYYYWN,GKNNRPS,SERDSSGFQVF,3.48,1 of 3
EGDSLRSYYRN,GKNNRPS,SSRDSSGFQVM,4.25,2 of 3
EGDSLRYYYCN,AKNIRPS,SSRDSSGFQVF,3.95,3 of 3
EGDSLEYYYHN,GKNNRPS,SSRDSSMFQVF,4.72,1 of 3
EGDSLRYYYNM,GKNNRPS,SSRDSKGFQVF,no signal,0 of 3
EGDSLRYYYKN,GKSNRPS,SSRDSSGFQVV,3.13,1 of 3
EGDSLRYYYYV,GKNNRPS,SSRDSSMFQVF,4.74,1 of 3
EGDHLRYYYYN,GKNNRPS,SSRDQSGFQVF,4.19,2 of 3
EGDSLRYYYCN,GKRYRPS,SSRDSSGFQVF,4.27,2 of 3
EGDSLRYYYIN,GKNNRPS,SSRDKSGFQVF,3.81,2 of 3
SGDSLRYYQKN,GKNNRPS,SSRDSSGFQVF,3.55,3 of 3
EGDSLRYYYQN,GKANRPS,SMRDSSGFQVF,4.30,2 of 3
EGDSLRYYYRI,GKNNRPS,SSRDSSGFQVQ,3.51,1 of 3
EGDSLRYYYYN,GKNNRPS,SSRDHSGFQVD,4.72,1 of 3
EGFSLRRYYLN,GKNNRPS,SSRDSSGFQVF,no signal,0 of 3
EGDSLRYYYVN,GKMNRPS,SSRDSSGDQVF,3.11,2 of 3
EGDSLRYYFLN,GKSNRPS,SSRDSSGFQVF,4.60,2 of 3
EGDSSWYYYGN,GKNNRPS,SSRDSSGFQVF,3.46,2 of 3
EGDYLRYYYVN,GKNNRVS,SSRDSSGFQVF,2.09,3 of 3
EGDSLRYYYYN,GKNNRPS,SSRDVSGFQVF,no signal,0 of 3
EGDSLRYYWQN,GKNNRPS,SFRDSSGFQVF,4.16,2 of 3
CGDSLRYYYCN,GKNNLPS,SSRDSSGFQVF,no signal,0 of 3
EGDWLRYYYVN,GKNNRPS,SSRDSWGFQVF,4.42,3 of 3
EGDSLRYYYQN,RKNNRPS,SSRDSSGHQVF,3.93,3 of 3
ECDSLRYYYIN,GKNYRPS,SSRDSSGFQVF,2.69,3 of 3
EGDSLRYYYKN,GKNNRPS,SSVDSSGFQHF,4.64,1 of 3
EGDSLRYYYTN,GWNNRPS,SSRDSSGFKVF,2.58,3 of 3
EGDSLRYYYIN,GKNNRPK,SSRDSSGPQVF,3.40,2 of 3
EGDSLRYYYVN,GKNNRPS,SVRDASGFQVF,3.40,3 of 3
EGDSLRYYSPN,GKNNRPS,SSRDSSGFQVA,1.66,3 of 3
EGDSLRYYYGV,GKNNRPS,SSRDSSGCQVF,4.68,1 of 3
EGDSLREYYWN,GKNNRPS,SSRDSSRFQVF,3.72,1 of 3
EGDSLRYYYCN,AKNNRPS,SMRDSSGFQVF,3.85,1 of 3
EGDSLRYYYEN,GKNNRPS,PSRDSYGFQVF,4.27,2 of 3
EGDSLRYYYEN,NKNNRPS,SSRDSSGPQVF,no signal,0 of 3
EGDSLRYYYDN,GKNNRPS,VSRDSSDFQVF,3.88,3 of 3
EGDSLRYWYIN,GKNNRPS,SSRDSSGFQVA,4.17,2 of 3
EGDSLRAYYNN,GKNNRPS,SSRDSSGFQVT,4.48,1 of 3
EGDSLRYEYYN,GKNNRPS,SSRRSSGFQVF,no signal,0 of 3
EGDSLRYYYRN,GKNNRPS,HSRDKSGFQVF,no signal,0 of 3
EGDSLRYYYYN,GNNNRPS,SRRDSSGFQVF,2.64,3 of 3
EGDSLRYYYSS,GKNNRPS,SSRDSSGTQVF,3.93,2 of 3
EGDSLRYYYSN,GKNNRPS,SSRDSSGFQNR,2.59,3 of 3
EGDSLRYDYIN,GKNNRPS,LSRDSSGFQVF,3.88,1 of 3
EGDSLRQYYPN,GKNNRPS,SQRDSSGFQVF,1.52,3 of 3
EGDSLRYYYTH,GKNNRPS,SSRDSSGFQVF,3.75,2 of 3
EGDSLRYQQEN,GKNNRPS,SSRDSSGFQVF,2.55,3 of 3
EGDSLRYMYDN,GKNNRPS,SSRDSSGFQVF,2.13,3 of 3
EGDSLRYYYPN,GLNNRPS,SSRDSTGFQVF,1.90,3 of 3
EGDSLRYYYYA,GKNNRPS,SSRDSSGFQVF,no signal,0 of 3
EGDSLRYYYMN,GKNNRPT,SSRDSSGFQVF,4.08,3 of 3

Picked from the list: the 9 lowest averages where every replicate gave a value.

CDR-L1	CDR-L2	CDR-L3	mean, log10 nM	seen in
EGDSLRQYYPN	GKNNRPS	SQRDSSGFQVF	1.52	3 of 3
EGDSLRYYSPN	GKNNRPS	SSRDSSGFQVA	1.66	3 of 3
EGDSLRYYYDN	GKNNRPS	SSRDQHGFQVF	1.71	3 of 3
EGDSLRYYYPN	GLNNRPS	SSRDSTGFQVF	1.90	3 of 3
EGDYLRYYYVN	GKNNRVS	SSRDSSGFQVF	2.09	3 of 3
EGDSLRYMYDN	GKNNRPS	SSRDSSGFQVF	2.13	3 of 3
EGDSLRYQQEN	GKNNRPS	SSRDSSGFQVF	2.55	3 of 3
EGDSLRYYYTN	GWNNRPS	SSRDSSGFKVF	2.58	3 of 3
EGDSLRYYYSN	GKNNRPS	SSRDSSGFQNR	2.59	3 of 3